Source: publication PMC9410265, “Citrate Regulates the Saccharomyces cerevisiae Mitochondrial GDP/GTP Carrier (Ggc1p) by Triggering Unidirectional Transport of GTP” (Journal of Fungi, 2022)

Molecular target: T1, Ggc1p (yeast mitochondrial GDP/GTP carrier) (Saccharomyces cerevisiae, UniProt P38988)
T1 sequence (P38988 1-300): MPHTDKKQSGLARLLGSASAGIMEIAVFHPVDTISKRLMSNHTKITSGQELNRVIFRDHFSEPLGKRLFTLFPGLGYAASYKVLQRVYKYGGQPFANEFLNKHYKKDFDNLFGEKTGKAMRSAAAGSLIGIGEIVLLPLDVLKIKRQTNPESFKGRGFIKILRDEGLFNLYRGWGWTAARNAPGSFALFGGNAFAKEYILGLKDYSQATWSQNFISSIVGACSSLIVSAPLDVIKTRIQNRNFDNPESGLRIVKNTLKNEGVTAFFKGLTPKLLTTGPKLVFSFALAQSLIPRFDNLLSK
Parameters: gene GGC1
Conditions: GTP/GTP exchange and citrate-induced uptake; concentration not given; thiol reagent added 2 min before [8-3H]GTP (1 μM); pH 7.0, 25 °C

SMILES: COC([CH2][Hg+])CNC(=O)c1ccccc1OCC(=O)O (stereo not shown) [mersalyl]
- % inhibition: only partially inhibited by sulfhydryl reagents such as mercury chloride and mersalyl
